Experimental data taken from PubChem BioAssay AID463195 (Sanford-Burnham Center for Chemical Genomics, 2010).
The entries are a selection whose mix differs from that of the whole data set. Calls of active or inactive are those of the source.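 Rule for the calls: active = inhibition of 40% or more at the single tested concentration; inactive = the rest.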

Test: wild-type TIM10 yeast growth inhibition – luminescence, uHTS, counter-screen for tim10-1 yeast inhibitor project, primary screen (AID 463195);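 note: wild-type TIM10 isogenic control strain grown at permissive 25 °C; 0% = DMSO yeast wells and 100% = minimal medium wells without yeast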
Conditions: S. cerevisiae TIM10 strain growth, BacTiter-Glo luminescence, 24 h; at 10 µM; hits give high values

Compound | inhibition
O=[N+]([O-])c1cc([N+](=O)[O-])c(NCC2CCS(=O)(=O)C2)c([N+](=O)[O-])c1 (stereo unspecified) | inactive: -2.29%
CCOP(C)(=S)SCC(=O)NC(C)(CC)C(=O)O (stereo unspecified) | inactive: -14.3%
CP(=O)(Nc1ccc(SC(F)(F)F)cc1)Oc1ccc(F)cc1 (stereo unspecified) | inactive: 14.1%
Cc1ccccc1NP(C)(=O)Nc1ccccc1C | inactive: -8.21%
CP(=O)(Nc1ccc2c(c1)OCCO2)Oc1ccccc1 (stereo unspecified) | inactive: -2.84%
CP(=O)(Oc1ccccc1)N1CCOC1=O (stereo unspecified) | inactive: 7.31%
CCc1ccc(OP(C)(=O)Nc2cccnc2)cc1 (stereo unspecified) | inactive: -2.62%
COc1ccccc1OP(C)(=O)Nc1c(C)n(C)n(-c2ccccc2)c1=O (stereo unspecified) | inactive: -16.9%
O=C(OCCCN1CCCC1)C(O)(c1ccccc1)C1CCCCC1 (stereo unspecified) | inactive: 2.57%
CCN(CC)CC(O)COC(=O)C(O)(c1ccccc1)C1CCCCC1 (stereo unspecified) | inactive: 7.29%
COc1ccc(OP(C)(=O)Nc2ccc(Br)cc2)cc1 (stereo unspecified) | inactive: 0.772%
CN(C)C(=O)c1c([N+](=O)[O-])cc([N+](=O)[O-])cc1[N+](=O)[O-] | inactive: 15.8%
CP(=O)(Nc1ccc(Cl)cc1)Oc1ccc(F)cc1 (stereo unspecified) | inactive: 15.6%
CC(C)(C)c1ccc(OP(C)(=O)O)cc1 | inactive: 8.45%
COc1ccccc1OP(C)(=O)Nc1ccccc1Br (stereo unspecified) | inactive: -1.99%
CP(=O)(OC12CC3CC(CC(C3)C1)C2)OC12CC3CC(CC(C3)C1)C2 | inactive: 33.2%

Compound | inhibition
CCOC(=O)c1ccc(NP(C)(=O)Oc2ccc(Cl)cc2)cc1 (stereo unspecified) | inactive: 6.52%
Nc1ccc2c(ccc3cccnc32)n1.O=[N+]([O-])c1cc([N+](=O)[O-])c(O)c([N+](=O)[O-])c1 | inactive: 21.6%
COc1ccc(OP(C)(=O)Nc2ccccc2Br)cc1 (stereo unspecified) | inactive: 5.65%
COc1ccccc1OP(C)(=O)Nc1ccc(C)c(C)c1 (stereo unspecified) | inactive: -3.6%
Cc1cc(C)cc(OP(C)(=O)Nc2cccc(C(F)(F)F)c2)c1 (stereo unspecified) | inactive: 25.9%
CP(=O)(OCCOc1ccccc1)OCCOc1ccccc1 | inactive: -2.75%
CP(=O)(Nc1ccc(Cl)cc1Cl)Oc1ccccc1 (stereo unspecified) | inactive: -7.44%
Cc1nc2ccc3ccccc3c2o1.O=[N+]([O-])c1cc([N+](=O)[O-])c(O)c([N+](=O)[O-])c1 | inactive: 28.3%
CN(C)CCOC(=O)C(O)(c1ccccc1)C1CCCC1 (stereo unspecified) | inactive: 5.47%
COc1ccccc1OP(C)(=O)Nc1ccc(Br)cc1 (stereo unspecified) | inactive: -6.15%
CCc1ccc(OP(C)(=O)O)cc1 | inactive: 2.37%
CP(=O)(Nc1ccccn1)Oc1ccccc1 (stereo unspecified) | inactive: 8.5%
COc1ccccc1OP(C)(=O)Nc1ccc(C)cc1C (stereo unspecified) | inactive: -8.26%
O=[N+]([O-])c1cc([N+](=O)[O-])c(Nc2ccccn2)c([N+](=O)[O-])c1 | active: 55%
Cc1c(NP(C)(=O)Oc2ccc(C(C)C)cc2)c(=O)n(-c2ccccc2)n1C (stereo unspecified) | inactive: 5.45%
